Measured values: article PMC9270327 (Communications Biology, 2022)

Chains of the proteins cited; added tags and fusions are not shown. Residues count along the entry.
UniProt Q9Y5Y6, whole entry: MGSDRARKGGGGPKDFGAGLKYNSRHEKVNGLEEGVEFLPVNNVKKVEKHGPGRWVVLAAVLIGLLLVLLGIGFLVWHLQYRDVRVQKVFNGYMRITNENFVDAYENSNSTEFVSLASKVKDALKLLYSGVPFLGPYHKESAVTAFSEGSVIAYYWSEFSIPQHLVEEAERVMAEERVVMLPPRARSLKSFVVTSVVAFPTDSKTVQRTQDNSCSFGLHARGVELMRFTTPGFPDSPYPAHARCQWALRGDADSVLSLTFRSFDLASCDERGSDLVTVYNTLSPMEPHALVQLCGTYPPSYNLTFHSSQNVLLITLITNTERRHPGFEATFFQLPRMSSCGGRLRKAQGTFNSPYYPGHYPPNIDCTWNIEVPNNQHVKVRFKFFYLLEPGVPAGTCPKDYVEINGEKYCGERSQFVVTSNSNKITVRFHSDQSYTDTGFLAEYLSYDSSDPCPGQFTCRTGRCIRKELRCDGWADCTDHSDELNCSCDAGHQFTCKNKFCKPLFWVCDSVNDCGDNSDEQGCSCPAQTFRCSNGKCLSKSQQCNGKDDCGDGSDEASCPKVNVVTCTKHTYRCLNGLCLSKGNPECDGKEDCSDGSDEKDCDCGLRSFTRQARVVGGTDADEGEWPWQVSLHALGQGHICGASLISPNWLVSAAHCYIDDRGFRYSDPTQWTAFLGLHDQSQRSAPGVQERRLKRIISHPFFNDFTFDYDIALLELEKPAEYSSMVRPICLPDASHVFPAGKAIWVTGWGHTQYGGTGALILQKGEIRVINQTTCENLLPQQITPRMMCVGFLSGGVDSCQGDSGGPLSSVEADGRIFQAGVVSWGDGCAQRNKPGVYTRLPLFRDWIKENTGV
UniProt P00742, 235-488 limits assumed: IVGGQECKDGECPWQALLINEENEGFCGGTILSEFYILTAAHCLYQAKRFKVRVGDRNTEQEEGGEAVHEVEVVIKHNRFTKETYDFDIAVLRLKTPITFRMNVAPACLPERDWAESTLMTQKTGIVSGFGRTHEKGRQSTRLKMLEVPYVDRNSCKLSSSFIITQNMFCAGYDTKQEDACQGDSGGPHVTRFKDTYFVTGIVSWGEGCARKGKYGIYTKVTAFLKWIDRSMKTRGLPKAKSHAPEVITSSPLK
UniProt P00742, 41-179 partner limits assumed: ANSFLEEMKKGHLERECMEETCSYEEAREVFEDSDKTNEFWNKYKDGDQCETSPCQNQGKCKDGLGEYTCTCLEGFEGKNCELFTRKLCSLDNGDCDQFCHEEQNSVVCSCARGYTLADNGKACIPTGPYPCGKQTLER

Experiments:
Format in all cases: biochemical
[1] = biological target: recombinant human matriptase (Homo sapiens, UniProt Q9Y5Y6); experiment: Enzyme inhibition assay with purified matriptase (Ki, dose-response); conditions: for matriptase activity, Mean (Fig. 2b): normalized, 0 nM = 100
[2] = biological target: recombinant human thrombin (Homo sapiens, UniProt P00734); experiment: Enzyme inhibition assay with purified thrombin (Ki, dose-response); conditions: for thrombin activity, Mean (Fig. 2c): normalized, 0 nM = 100
factor Xa = factor Xa (Homo sapiens, UniProt P00742); experiment: Enzyme inhibition assay with purified factor Xa (Ki, dose-response); conditions: compared to TMPRSS2, text

SMILES | thrombin activity, Mean (Fig. 2c) ([2]; 0.02 nM) | thrombin activity, Mean (Fig. 2c) ([2]; 0.04 nM) | thrombin activity, Mean (Fig. 2c) ([2]; 0.2 nM) | thrombin activity, Mean (Fig. 2c) ([2]; 2 nM) | thrombin activity, Mean (Fig. 2c) ([2]; 20 nM) | thrombin activity, Mean (Fig. 2c) ([2]; 200 nM) | thrombin activity, Mean (Fig. 2c) ([2]; 10000 nM) | thrombin activity, Mean (Fig. 2c) ([2]; 100000 nM) | matriptase activity, Mean (Fig. 2b) ([1]; 0.2 nM) | matriptase activity, Mean (Fig. 2b) ([1]; 1 nM) | matriptase activity, Mean (Fig. 2b) ([1]; 10 nM) | matriptase activity, Mean (Fig. 2b) ([1]; 100 nM) | matriptase activity, Mean (Fig. 2b) ([1]; 1000 nM) | matriptase activity, Mean (Fig. 2b) ([1]; 50000 nM) | matriptase activity, Mean (Fig. 2b) ([1]; 500000 nM) | matriptase activity, Mean (Fig. 2b) ([1]; 0.1 nM) | further results
CC(=O)N[C@@H](CCCNC(=N)N)C(=O)N1CCC[C@H]1C(=O)N[C@H](CCCNC(=N)N)C(=O)c1nc2ccccc2s1 |  |  |  |  |  |  |  |  |  |  |  |  |  |  |  |  | matriptase activity, Mean (control = 100), Figure S11 ([1]; inhibitor 0.1 nM): 102.57; matriptase activity, Mean (control = 100), Figure S11 ([1]; inhibitor 0.2 nM): 85.4556; matriptase activity, Mean (control = 100), Figure S11 ([1]; inhibitor 1 nM): 64.0187; matriptase activity, Mean (control = 100), Figure S11 ([1]; inhibitor 10 nM): 14.7196; matriptase activity, Mean (control = 100), Figure S11 ([1]; inhibitor 100 nM): 1.519; matriptase activity, Mean (control = 100), Figure S11 ([1]; inhibitor 1000 nM): 0.2921; matriptase activity, Mean (control = 100), Figure S11 ([1]; inhibitor 50000 nM): -0.1752; matriptase activity, Mean (control = 100), Figure S11 ([1]; inhibitor 500000 nM): -0.5257
CC(=O)N[C@H](CCCNC(=N)N)C(=O)N[C@@H](CC1CCC1)C(=O)NC(CCCNC(=N)N)C(=O)c1nc2ccccc2s1 (some centres unmarked) | 101.418 | 100.895 | 100.933 | 102.798 | 103.806 | 101.978 | 94.4401 | 57.3881 | 115.188 | 112.911 | 90.0765 | 34.8746 | 8.412 | 0.08892 | -0.1245 |  | thrombin activity, Mean (control = 100), S6b ([2]; inhibitor 0.02 nM): 101.418; thrombin activity, Mean (control = 100), S6b ([2]; inhibitor 0.04 nM): 100.895; thrombin activity, Mean (control = 100), S6b ([2]; inhibitor 0.2 nM): 100.933; thrombin activity, Mean (control = 100), S6b ([2]; inhibitor 2 nM): 102.798; thrombin activity, Mean (control = 100), S6b ([2]; inhibitor 20 nM): 103.806; thrombin activity, Mean (control = 100), S6b ([2]; inhibitor 200 nM): 101.978; thrombin activity, Mean (control = 100), S6b ([2]; inhibitor 10000 nM): 94.4401; thrombin activity, Mean (control = 100), S6b ([2]; inhibitor 100000 nM): 57.3881; matriptase activity, Mean (control = 100), S6a ([1]; inhibitor 0.2 nM): 115.188; matriptase activity, Mean (control = 100), S6a ([1]; inhibitor 1 nM): 112.911; matriptase activity, Mean (control = 100), S6a ([1]; inhibitor 10 nM): 90.0765; matriptase activity, Mean (control = 100), S6a ([1]; inhibitor 100 nM): 34.8746; matriptase activity, Mean (control = 100), S6a ([1]; inhibitor 1000 nM): 8.412; matriptase activity, Mean (control = 100), S6a ([1]; inhibitor 50000 nM): 0.08892; matriptase activity, Mean (control = 100), S6a ([1]; inhibitor 500000 nM): -0.1245
CC(=O)N[C@@H](Cc1c[nH]cn1)C(=O)N1CCC[C@H]1C(=O)NC(CCCNC(=N)N)C(=O)c1nc2ccccc2s1 (some centres unmarked) | 99.0488 | 96.801 | 102.681 | 101.103 | 101.038 | 103.977 | 56.5933 | 16.9477 | 106.581 | 108.32 | 75.631 | 13.2955 |  | 0.06038 | -0.2174 | 111.943 | matriptase activity, Mean (Fig. 2b) ([1]; 0.05 nM): 110.735
CC(=O)N[C@H](Cc1c[nH]cn1)C(=O)N1CCC[C@H]1C(=O)NC(CCCNC(=N)N)C(=O)c1nc2ccccc2s1 (some centres unmarked) | 107.86 | 109.144 | 106.042 | 109.679 | 121.123 | 105.454 | 42.941 | 9.144 | 86.251 | 91.6482 | 75.3635 | 25.7881 | 2.768 | 0.0349 | -0.09306 | 79.9698 | 
CC(=O)N[C@H](CCCNC(=N)N)C(=O)N[C@H](C(=O)NC(CCCNC(=N)N)C(=O)c1nc2ccccc2s1)[C@@H](C)O (some centres unmarked) | 99.1942 | 100.169 | 100.466 | 99.5334 | 98.8973 | 94.9109 | 98.4309 | 85.4962 | 107.444 | 106.788 | 103.897 | 76.9972 | 23.9106 | 0.6006 | -0.06983 | 99.148 | 
CC(=O)N[C@H](CCCNC(=N)N)C(=O)N1CCCC[C@H]1C(=O)NC(CCCNC(=N)N)C(=O)c1nc2ccccc2s1 (some centres unmarked) | 101.993 | 99.4488 | 96.7343 | 101.951 | 105.089 | 103.053 | 77.608 | 30.3647 | 110.626 | 113.164 | 102.175 | 60.7586 | 13.1781 | 0.3068 | 0.01395 | 110.25 | 
CC(=O)N[C@@H](CC(N)=O)C(=O)N1CCC[C@H]1C(=O)NC(CCCNC(=N)N)C(=O)c1nc2ccccc2s1 (some centres unmarked) | 97.0434 | 97.9595 | 102.416 | 105.79 | 96.9601 | 88.1717 | 20.4501 | 5.914 | 103.176 | 89.5302 | 51.3051 | 11.3254 | 1.117 | 0.058 | -0.1015 | 110.803 | 
CC(=O)N[C@@H](CCCNC(=N)N)C(=O)N1CCC[C@H]1C(=O)N[C@@H](CCCNC(=N)N)C(=O)c1nc2ccccc2s1 |  |  |  |  |  |  |  |  |  |  |  |  |  |  |  |  | matriptase activity, Mean (control = 100), Figure S11 ([1]; inhibitor 0.1 nM): 104.708; matriptase activity, Mean (control = 100), Figure S11 ([1]; inhibitor 0.2 nM): 103.176; matriptase activity, Mean (control = 100), Figure S11 ([1]; inhibitor 1 nM): 88.2587; matriptase activity, Mean (control = 100), Figure S11 ([1]; inhibitor 10 nM): 56.7782; matriptase activity, Mean (control = 100), Figure S11 ([1]; inhibitor 100 nM): 12.0817; matriptase activity, Mean (control = 100), Figure S11 ([1]; inhibitor 1000 nM): 1.5882; matriptase activity, Mean (control = 100), Figure S11 ([1]; inhibitor 50000 nM): -0.3971; matriptase activity, Mean (control = 100), Figure S11 ([1]; inhibitor 500000 nM): -0.1134
CC(=O)N[C@H](CCCNC(=N)N)C(=O)N1CCC[C@H]1C(=O)NC(CCCNC(=N)N)C(=O)c1nc2ccccc2s1 (some centres unmarked) | 108.177 | 90.3758 | 91.5495 | 90.6497 | 91.8623 | 94.0138 | 33.2944 | 7.199 | 94.2915 | 70.9523 | 30.0834 | 5.431 | 0.6062 | 0.01263 | -0.1263 | 104.067 | selectivity over factor Xa (factor Xa): no selectivity
